Data as given in patent publication US9062320B2, “Biological systems input-output response system and plant sentinels” (dated 2015).

How the values were obtained:
PlantPho promoter = assay: Cytokinin-dependent GUS expression via PhoB:VP64 and PlantPho promoter; conditions: 0.5 μM t-zeatin, approximately 16 h
[1] = test system: degreened transgenic Arabidopsis plants; assay: Regreening of degreened plants; conditions: 1 μM t-zeatin for 6 hours after degreening

## t-zeatin
PlantPho promoter
  Cytokinin-dependent induction of GUS expression: up to 7.8 fold
[1]
  effect on regreening process: enhanced the process
